## Measured water solubility values of organic chemicals

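These are experimental values that the OPERA curators gathered from public databases to train and test their QSAR models. The files give a single number for a compound and property, which may rest on several reports. How each value was measured is not recorded, so precision varies. The measured form (salt, isomer or mixture) is not always the one drawn. Unmarked limits or estimates from the upstream databases cannot be ruled out.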

Water solubility is log10 of mol/L, nominally at 25 °C; higher is more soluble.

| SMILES | log solubility (log10 mol/L) |
|---|---|
| CCCCCCC(O)C/C=C\CCCCCCCC(=O)OCC(COC(=O)CCCCCCC/C=C\CC(CCCCCC)OC(=O)/C=C\C(=O)O)OC(=O)CCCCCCC/C=C\CC(O)CCCCCC (stereo partly drawn) | -5.677 |
| O=c1cnc2cnc(=O)[nH]c2[nH]1 | -2.361 |
| N#Cc1ccc(-c2cnc3ncc(Cc4ccc5ncccc5c4)n3n2)cc1F | -3.182 |
| CCSC(=S)OC(CC(=O)O)C(=O)O (stereo not drawn) | -1.6 |
| CC(=O)OCCC(C)CC(C)(C)C (stereo not drawn) | -3.989 |
| COc1cc(/C=N\NC(N)=S)ccc1O[C@@H]1O[C@H](CO)[C@@H](O)[C@H](O)[C@H]1O | -2.865 |
| CC(=O)OC(OC(C)=O)C(OC(C)=O)OC(C)=O | -2.096 |
| CCCCOCc1ccc(O)c(OC)c1 | -2.082 |
| O=C(OCC(=O)N1CCC1C(=O)O)c1ccccc1 (stereo not drawn) | -2.141 |
| CCCCC(O)CCCC | -2.495 |
| CSCCC=O | 0.194 |
| COC(=O)[C@H]1[C@H]2C[C@@H]3c4[nH]c5ccccc5c4CCN3C[C@H]2C[C@@H](OC(=O)c2cc(OC)c(OC)c(OC)c2)[C@@H]1OC | -4.717 |
| O=C(N[C@H](C(=O)O)C1CCCCC1)OCc1ccccc1 | -3.285 |
| Nc1nc(Cl)nc2c1ncn2[C@@H]1O[C@H](CO)[C@@H](O)[C@@H]1F | -1.793 |
| O=S(=O)(O)c1cscn1 | 0.36 |
| Clc1ccc(Cl)c(Oc2cc(Cl)c(Cl)cc2Cl)c1 | -7.56 |
| Cc1ccc(N)cc1S(=O)(=O)O | -1.818 |
| FC(F)(F)C(Cl)(Cl)Cl | -4.333 |
| O=C(O)c1ccccc1C(=O)c1ccc(O)cc1O | -2.696 |
| CC(=O)[C@H]1CC[C@H]2[C@@H]3C[C@H](C)C4=CC(=O)CC[C@]4(C)[C@H]3[C@@H](O)C[C@]12C | -4.01 |
| O=C(N/N=C/C=C/c1ccc([N+](=O)[O-])o1)c1ccc(Br)o1 | -5.072 |
| O=C1N=C2C(=O)NC(=O)N=C2C(=O)N1 | -4.59 |
| CCC1NC(=O)NC1=O (stereo not drawn) | -0.06 |
| CC1(C)C2CC=C(CCC=O)C1C2 (stereo not drawn) | -3.466 |
| NCCCCCCCCCCCC(=O)O | -3.196 |
| COc1cc(Br)c(C=O)cc1O | -3.274 |
| C=CC(=O)OC1CCC(C(C)(C)C)CC1 (stereo not drawn) | -3.484 |
| C[C@H](O)[C@H](O)c1c[nH]c2nc(N)nc(=O)c-2n1 | -2.519 |
| CCC(=O)O[C@]1(C(=O)CCl)[C@@H](C)C[C@H]2[C@@H]3C[C@H](F)C4=CC(=O)C=C[C@]4(C)[C@@]3(F)[C@@H](O)C[C@@]21C | -4.807 |
| N#Cc1cccc(C2=C3C(=O)NC(c4cccc(C#N)c4)=C3C(=O)N2)c1 | -7.429 |
| O=C1OC(c2ccc(O)c(-c3ccccc3)c2)(c2ccc(O)c(-c3ccccc3)c2)c2ccccc21 | -3.559 |
| FC(F)(F)C(F)(F)C(F)(F)N(C(F)(F)C(F)(F)C(F)(F)F)C(F)(F)C(F)(F)C(F)(F)F | -9.136 |
| CC1(C)O[C@@H]2C[C@H]3[C@@H]4CCC5=CC(=O)C=C[C@]5(C)[C@H]4[C@@H](O)C[C@]3(C)[C@]2(C(=O)CO)O1 | -3.846 |
| CCCCC(CC)COP(=O)(O)OCC(CC)CCCC (stereo not drawn) | -3.25 |
| CC(C)(C)c1cc2c(c(C(C)(C)C)c1)OP(=O)(O)Oc1c(cc(C(C)(C)C)cc1C(C)(C)C)C2 | -4.582 |
| CCCCC(=O)CC(=O)C(=O)O | -0.957 |
| C=CC(C)=CCC=C(C)C | -4.83 |
| CC(C)c1cc(C(C)C)c(N=C=Nc2c(C(C)C)cc(C(C)C)cc2C(C)C)c(C(C)C)c1 | -8.354 |
| N#CCC(=O)Nc1cccc(Cl)c1 | -2.626 |
| NS(=O)(=O)c1ccccc1-c1nc2ccccc2c(=O)[nH]1 | -3.079 |

Extract of 6 entries:

SMILES	log solubility (log10 mol/L)
O=C1N=C2C(=O)NC(=O)N=C2C(=O)N1	-4.59
CSCCC=O	0.194
O=C(N[C@H](C(=O)O)C1CCCCC1)OCc1ccccc1	-3.285
CC(C)(C)c1cc2c(c(C(C)(C)C)c1)OP(=O)(O)Oc1c(cc(C(C)(C)C)cc1C(C)(C)C)C2	-4.582
FC(F)(F)C(Cl)(Cl)Cl	-4.333
CCCCCCC(O)C/C=C\CCCCCCCC(=O)OCC(COC(=O)CCCCCCC/C=C\CC(CCCCCC)OC(=O)/C=C\C(=O)O)OC(=O)CCCCCCC/C=C\CC(O)CCCCCC (stereo partly drawn)	-5.677

From the experimental data distributed with OPERA 2.9.